“And” between values parts separate entries of the source, which are not always exact repeats. Equal entries are not always repeated.

The chains behind the UniProt entries cited, without tags or fusion partners. Where a name states a change or a piece, a line headed by the entry shows the natural chain unless it says otherwise.
UniProt P41440: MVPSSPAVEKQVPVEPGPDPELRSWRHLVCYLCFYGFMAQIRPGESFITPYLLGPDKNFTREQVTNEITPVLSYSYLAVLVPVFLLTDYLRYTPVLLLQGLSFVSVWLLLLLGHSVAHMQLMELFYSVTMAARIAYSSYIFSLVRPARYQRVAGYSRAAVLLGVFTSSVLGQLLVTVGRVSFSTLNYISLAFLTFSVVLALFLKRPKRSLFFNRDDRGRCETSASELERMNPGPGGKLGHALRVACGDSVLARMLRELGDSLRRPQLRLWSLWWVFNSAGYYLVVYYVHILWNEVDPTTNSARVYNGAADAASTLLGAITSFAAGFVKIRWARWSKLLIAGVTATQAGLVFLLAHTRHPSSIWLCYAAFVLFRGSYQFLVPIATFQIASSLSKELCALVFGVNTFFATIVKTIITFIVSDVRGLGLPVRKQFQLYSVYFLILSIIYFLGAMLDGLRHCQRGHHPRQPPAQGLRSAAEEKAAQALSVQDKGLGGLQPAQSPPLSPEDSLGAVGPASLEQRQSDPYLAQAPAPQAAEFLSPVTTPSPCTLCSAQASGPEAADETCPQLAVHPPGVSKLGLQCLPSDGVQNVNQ

In series [1] the test system is breast cancer cell lines.
Series [2] relates to tubulin.
Series [3] concerns breast cancer cell lines. The conditions noted are these: cited from earlier work.
For series [4] the following is noted: in vivo; cited from earlier work.
The target of series [5] is reduced-folate carrier (RFC) (Homo sapiens, UniProt P41440). The conditions noted are these: read-out: Km for the RFC.
Series [6] concerns LTR Ras3, Melan-a, MT1.2 and B16F10 cell lines.
Series [7] deals with MT1.2.
In series [8] the test system is TPMT.
Series [9] concerns platinum-resistant epithelial ovarian carcinoma. The conditions noted are these: in vivo.
Series [10] has as its system metastatic melanoma (MM). Particulars: in vivo.
The test system of series [11] is HUVECs.
The test system of series [12] is HUVECs. The source holds these as a separate data set.
Series [13] relates to PC-3 human prostate tumours. The conditions noted are these: mouse, in vivo.
Series [14] relates to tumour cell lines.
Series [15] relates to H69 SCLC xenografts. Particulars: mouse, in vivo.

With `CCc1cc2c(cc1OS(N)(=O)=O)CCC1C2CCC2(C)C(=O)CCC12` (stereo not shown) [2-EtEMATE, 2-Ethylestrone-3-O-Sulfamate], the “fold more potent than parent compounds” value in series [1] is given as greater than 10 fold. Also, in series [2], the “effect on tubulin assembly” value was “inhibited the ability of paclitaxel to promote tubulin assembly”.

As for `COc1cc2c(cc1O)CC[C@@H]1[C@@H]2CC[C@]2(C)C(=O)CC[C@@H]12` [2-MeOE1, 2-Methoxyestrone], in series [3], the “G2/M arrest in breast cancer cells in vitro” value is recorded as “did not”. `CCCCS(=N)(=O)CCC(N)C(=O)O` (stereo not shown) [BSO, buthionine sulfoximine]: the peak plasma levels in series [4] is on record as 3,000-8,000 M. Take `C#CCN(Cc1ccc2nc(N)[nH]c(=O)c2c1)c1ccc(C(=O)NC(CCC(=O)O)C(=O)O)cc1` (stereo not shown) [CB3717]: in series [5], the Km (commonly the concentration of substrate that gives half-maximal velocity) was determined as 43 µM. For `O=c1cc(N2CCOCC2)oc2c(-c3ccccc3)cccc12` [LY294002], in [6], the rate of migration was 9.8 m/hr and 11.8 m/hr and 10.3 m/hr. In addition, in series [7], the S-phase fraction was 84 % of the control value and 43 % of the control value. On to `CC(C)CC[C@@H](O)[C@](C)(O)[C@H]1CC[C@@]2(O)C3=CC(=O)[C@]4(O)C[C@@H](O)[C@@H](O)C[C@]4(C)[C@H]3[C@H](O)C[C@]12C` [MA, Muristerone A], for which, in series [8], the “TPMT activity at optimal induction” value is reported as 2.7 nmol/hr/mg of protein.

As to `Cc1nc2ccc(CN(C)c3ccc(C(=O)N[C@@H](CCC(=O)O)C(=O)O)s3)cc2c(=O)[nH]1` [RTX], the Km in [5] fell in the range of 1 to 2 µM. Regarding `CC(=O)O[C@H]1C(=O)[C@@]2(C)[C@H]([C@H](OC(=O)c3ccccc3)[C@]3(O)C[C@H](OC(=O)[C@H](O)[C@@H](NC(=O)c4ccccc4)c4ccccc4)C(C)=C1C3(C)C)[C@]1(OC(C)=O)CO[C@@H]1C[C@@H]2O` [TOL], the partial responses in [9] is 22.5%.

As to `O=C1CCC(N2C(=O)c3ccccc3C2=O)C(=O)N1` (stereo not shown) [Thalidomide], the objective responses result in [10] is “no objective responses”. As for `COc1cc2c(c(OC)c1OC)-c1ccc(OP(=O)(O)O)cc1[C@@H](NC(C)=O)CC2` [ZD6126], the “concentrations at which toxicity/antiproliferative effects occur” value in [11] is greater than 100 M. In series [12], the “increased permeability of cell monolayers” value is 20-30%.

As for `COc1cc2c(Nc3ccc(Br)cc3F)ncnc2cc1OCC1CCN(C)CC1` [ZD6474], the “tumour volume after re-treatment” value in [13] is reported as ~ 0.2 cm3. On to `C[C@@H]1CN(CCCn2c3ccccc3c3ccccc32)C[C@H](C)N1` [rimcazole], for which the cell death induction entry in series [14] is “induce programmed cell death”. Take `CC[C@@]1(O)C(=O)OCc2c1cc1n(c2=O)Cc2cc3c(CN(C)C)c(O)ccc3nc2-1` [topotecan]: the tumour response result in [15] was “only slowed the tumour growth rate”.

The values above are taken from PMC2363545 (British Journal of Cancer, 2000).
